Experimental data reported in patent publication US10804000B2, “High efficiency continuous-flow production of radioisotopes” (priority 2016, dated 2020).

Assay: Pre-irradiation solubility tests of lanthanide complexes in the water capture matrix (neutron activation analysis of washes)
Type: physicochemical
Settings: indicates solubility in capture matrix; for % Activity in wash 1: first pre-irradiation wash with 0.5 mL ultra-pure H2O, 153Sm at 103 keV, 166Ho at 81 keV; for % Activity in wash 2: second pre-irradiation wash with H2O
Method: The solubility of the lanthanide complexes in the water capture matrix was determined by mixing a few milligrams of the lanthanide-containing target solid thoroughly with 0.5 mL of ultra-pure H2O then separating the solution from the solid utilizing centrifugal filter tubes (EMD Millipore). A second wash of the solid was obtained using the same procedure. The solid and the washes were submitted for neutron activation analysis in order to determine the solubility of the lanthanide containing target in H2O.
Post irradiation, the samples were left to cool for a predetermined amount of time to allow any short-lived radioisotopes to decay, before being transferred to the laboratory for treatment and analysis. The capture matrix was filtered and separated from the solid in order to separate any recoiled radiolanthanide. The solid residue and capture matrix were collected for analysis of the activity of the radiolanthanide. The pre-irradiation solubility test washes along with standards were also prepared for analysis. The samples were analyzed for radiolanthanide activity using a High Purity Germanium detector (HPGe) at the representative gamma energy of the radiolanthanide of interest.
All the samples for a particular compound were irradiated as a group, along with standards for calibration purposes and direct comparisons of activities. In samples that were not treated post irradiation by separation (e.g. as in the case of target and capture matrix) the activity of the radiolanthanide is directly related to the total concentration of the corresponding lanthanide. The count rate measured in each sample was normalized to a single point in time to account for decay during measurements. Both pre-irradiation washes were collected to give an indication of the solubility of the lanthanide complex in the capture matrix (H2O). The second wash was obtained to determine if the lanthanide activity detected in the first wash was actually due to solubility of the lanthanide containing target or due to factors such as impurities or the presence of uncomplexed lanthanide that came off in the first wash. […] Radiolanthanides that recoiled out but reformed bonds with the solid compound would appear as retained as well. […] Activity in the capture matrix may also reflect dissolution of the target matrix rather than recoil.

Substance	% Activity in wash 1 [%]	% Activity in wash 2 [%]
Holmium 8-hydroxyquinolinate [Compound 5]	1.4 ± 0.9	<1
Samarium 8-hydroxyquinolinate [Compound 4]	<1	<1
